From publication PMC4788533 (Investigational new drugs, 2015)

How the values were obtained:
[1] = Cetuximab plasma concentrations; assay type: in vivo, human
[2] = weekly following a 400 mg/m^2 load, with selumetinib 75 mg PO BID

Substance: cetuximab: EGFR-directed therapy (Erbitux, Bristol-Myers Squibb), given IV
- Cetuximab plasma concentration, Mean ([1]; Cycle 1 Day 1 (baseline), N=32): 0 µg/mL
- Cetuximab steady state concentrations ([1]; achieved by day 8 after the loading dose): 18 to 20 µg/mL
- Cetuximab plasma concentration, Mean ([1]; trough, Cycle 1 Day 8, N=31): 18.36 µg/mL
- Cetuximab plasma concentration, Mean ([1]; trough, Cycle 1 Day 15, N=28): 20.68 µg/mL
- Cetuximab plasma concentration, Mean ([1]; trough, Cycle 1 Day 22, N=26): 18.66 µg/mL
- Cetuximab plasma concentration, Mean ([1]; trough, Cycle 2 Day 1, N=32): 21.31 µg/mL
- Cetuximab plasma concentration, Mean ([1]; trough, Cycle 3 Day 1, N=18): 16.99 µg/mL
- Cetuximab plasma concentration, Mean ([1]; trough, Cycle 4 Day 1, N=7): 7.73 µg/mL
- Cetuximab plasma concentration, Mean ([1]; trough, Cycle 5 Day 1, N=5): 7.28 µg/mL
- Cetuximab plasma concentration, Mean ([1]; trough, Cycle 6 Day 1, N=1): 9.16 µg/mL
- Cetuximab plasma concentration, Mean ([1]; trough, Cycle 7 Day 1, N=1): 8.18 µg/mL
- maximum tolerated dose of the combination, cetuximab part [2]: 250 mg/m^2
